{"sequences": {"note": "The chains behind the UniProt entries cited, without tags or fusion partners.", "UniProt P20272, whole entry": "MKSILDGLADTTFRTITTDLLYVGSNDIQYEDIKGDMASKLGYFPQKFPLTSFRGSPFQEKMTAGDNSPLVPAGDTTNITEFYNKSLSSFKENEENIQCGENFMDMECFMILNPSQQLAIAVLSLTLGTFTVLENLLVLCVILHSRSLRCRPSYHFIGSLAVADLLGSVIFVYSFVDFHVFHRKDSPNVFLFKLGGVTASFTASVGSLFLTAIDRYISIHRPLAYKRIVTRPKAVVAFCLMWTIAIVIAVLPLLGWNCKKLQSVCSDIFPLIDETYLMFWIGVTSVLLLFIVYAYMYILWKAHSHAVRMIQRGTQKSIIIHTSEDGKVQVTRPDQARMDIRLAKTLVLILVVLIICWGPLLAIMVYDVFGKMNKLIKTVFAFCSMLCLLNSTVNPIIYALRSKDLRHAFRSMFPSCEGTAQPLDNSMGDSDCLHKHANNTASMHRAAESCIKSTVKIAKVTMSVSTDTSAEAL"}, "source": "ChEMBL document CHEMBL5532738", "about": "“Chiral Me-2-arachidonoyl Glycerols: The First Potent Endocannabinoid Glyceride Templates with Stability to COX-2” (ACS Med Chem Lett, 2024)", "molecular_target": "Cannabinoid receptor 1 (Rattus norvegicus, UniProt P20272)", "assay": "Agonist activity at rat CB1 receptor stably expressed in HEK293 cells assessed as inhibition of forskolin-stimulated cAMP accumulation incubated for 5 mins by Lance Ultra cAMP assay", "assay_type": "functional, cell-based"}
{"molecule": "CCCCC/C=C\\C/C=C\\C/C=C\\C/C=C\\CCCC(=O)OC(CO)CO", "note": "[2-ARACHIDONOYLGLYCEROL]", "values": [{"measurement": "EC50", "result": 25, "unit": "nM"}]}
